{"sequences": {"note": "Amino acid sequences for entries named in this document (tags omitted). Residues count along the entry.", "UniProt P13051, 94-313 limits assumed": "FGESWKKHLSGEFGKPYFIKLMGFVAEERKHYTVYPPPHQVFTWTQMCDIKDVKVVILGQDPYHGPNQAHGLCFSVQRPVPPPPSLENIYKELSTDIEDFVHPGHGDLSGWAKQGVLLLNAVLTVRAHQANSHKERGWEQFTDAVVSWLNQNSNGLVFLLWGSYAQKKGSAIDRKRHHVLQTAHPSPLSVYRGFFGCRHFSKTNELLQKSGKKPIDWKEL", "UniProt P13051, 1-304 isoform P13051-2": "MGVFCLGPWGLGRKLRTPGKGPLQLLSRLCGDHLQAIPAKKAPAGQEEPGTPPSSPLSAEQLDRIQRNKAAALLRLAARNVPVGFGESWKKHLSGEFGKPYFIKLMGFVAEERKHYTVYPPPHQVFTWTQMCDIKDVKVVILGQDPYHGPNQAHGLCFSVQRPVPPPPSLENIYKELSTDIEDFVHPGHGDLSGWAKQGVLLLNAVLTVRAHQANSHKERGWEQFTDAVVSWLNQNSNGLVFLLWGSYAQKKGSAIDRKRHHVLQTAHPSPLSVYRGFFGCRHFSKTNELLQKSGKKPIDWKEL"}, "source": "patent US20240156764A1", "about": "“INHIBITION OF URACIL DNA GLYCOSYLASE IN THE OPEN CONFORMATION” (CASE WESTERN RESERVE UNIVERSITY, priority 2022, published 2024)", "key": {"human UDG [1]": {"target": "T1, human UDG (Homo sapiens, UniProt P13051)", "assay": "UDG protein thermal shift with Sypro orange dye", "type": "binding", "conditions": "fluorescence dye thermal shift", "experimental": "FIGS. 3(A-C) illustrate ATA directly binds and destabilizes the human UDG protein. A: ATA binding to UDG measured by MST. ATA (30 nM to 500 μM) was titrated into a fixed concentration of labeled UDG (100 nM). The data for thermophoresis was recorded at 20° C. using the blue LED at 20% and IR-Laser at 40%. The isotherm derived from the raw data and fitted according to the law of mass action. […] Monitoring of fluorescence took place for 2 hr (Bioraid CFX96, Hex filter, 25-97° C., 1.6° C./2 min). Negative (−) derivative RFU raw data and plots from the machine were obtained and analyzed. […] C: Monitoring the thermal stability of UDG in the presence of titrating concentrations of ATA through intrinsic tryptophan fluorescence. […]\nFIGS. 10(A-D) illustrate UDG thermal shift. […] Each plate was incubated 60 min at room temperature before the monitoring of fluorescence took place about 2 hr (Biorad CFX96, Hex filter, 25° C.-97C, 1.6° C./2 min). […] Each plate was incubated 60 min at room temperature before the monitoring of fluorescence took place about 2 hr (Biorad CFX96, Hex filter, 25° C.-97° C., increment of 1.6° C./2 min). […]"}, "[2]": {"test_system": "uracil removal (U:G base pair) in MCF-7 cells", "assay": "Host-cell reactivation assay, uracil removal from reporter plasmid, MCF-7", "type": "cell-based, human", "conditions": "ATA 2.5 μM", "experimental": "(§1) FIG. 6(A-B) illustrate measurement of ATA in vivo using a host-cell reactivation assay. A: MCF-7 cells were seeded at 50,000 cells per well in a 12-well plate. B: HAP cells (wild type or UNG gene knockout) were seeded at 75,000 cells per well in a 6-well plate. Cells were allowed to adhere overnight and then cells in duplicate wells were treated with DMSO or ATA (2.5, 5, or 10 μM) for 24 hr (refer to methodology). After 24 hours, cells were dissociated by trypsinization and analyzed by flow cytometry using an Atune NxT flow cytometer. Gating and compensation were determined by transfection of single-color controls. Reporter expression was calculated for each dose of ATA as previously described in publications and normalized to DMSO treatment.\n(§2) FIGS. 7(A-B) illustrate measurement of ATA inhibition on uracil, 8oxoG:C, A:8oxoG:C, Hypoxanthine:T and T:G repairs in MCF-7 cells using a host-cell reactivation assay with doses. Panel A: 1.25 μM and panel B: 2.5 μM. Reporter expression was calculated for each dose of ATA as described in prior publications and normalized to DMSO treatment.\nRemoval of uracil in cells was measured using a reporter plasmid containing a dU:dG base pair (referred to as BFP_U), as described previously. […] The reciprocal of BFP_U reporter expression was calculated for each experimental condition. […] This creates a premature stop codon, completely abolishing fluorescence. […]"}, "[3]": {"test_system": "uracil removal in UDG-knockout HAP cells", "assay": "Host-cell reactivation assay, uracil removal, UDG-knockout HAP cells", "type": "cell-based, human", "conditions": "ATA 5 μM; from ~0.3 without ATA", "experimental": "as §1\nRemoval of uracil in cells was measured using a reporter plasmid containing a dU:dG base pair (referred to as BFP_U), as described previously. In brief, dU is substituted into the transcribed strand at position 191 of the blue fluorescent protein (BFP) gene. When RNA polymerase II incorporates dA opposite dU, transcripts encoding wild type BFP are produced. […] The reciprocal of BFP_U reporter expression was calculated for each experimental condition. […] This creates a premature stop codon, completely abolishing fluorescence. Removal of thymidine followed by insertion of dC opposite dG restores reporter fluorescence. […]"}, "[4]": {"test_system": "8oxoG:C (OGG1) repair in MCF-7 cells", "assay": "Host-cell reactivation assay, 8oxoG:C reporter, MCF-7", "type": "cell-based, human", "conditions": "ATA 2.5 μM", "experimental": "as §2\n(§3) Removal of uracil in cells was measured using a reporter plasmid containing a dU:dG base pair (referred to as BFP_U), as described previously. In brief, dU is substituted into the transcribed strand at position 191 of the blue fluorescent protein (BFP) gene. When RNA polymerase II incorporates dA opposite dU, transcripts encoding wild type BFP are produced. Upon repair, dU is replaced by dC, leading to production of transcripts encoding a non-fluorescent protein. […] A corresponding cocktail of damage-free plasmids containing pmax BFP (100 ng per transfection), pmax GFP (100 ng per transfection), and carrier plasmid (800 ng per transfection) constituted the “undamaged” cocktail. […] The reciprocal of BFP_U reporter expression was calculated for each experimental condition. […] This creates a premature stop codon, completely abolishing fluorescence. Removal of thymidine followed by insertion of dC opposite dG restores reporter fluorescence."}, "[5]": {"test_system": "hypoxanthine:T (MPG) repair in MCF-7 cells", "assay": "Host-cell reactivation assay, hypoxanthine:T reporter, MCF-7", "type": "cell-based, human", "conditions": "ATA 2.5 μM", "experimental": "as §2, §3"}, "human UDG [6]": {"target": "T1, human UDG", "assay": "Gel-based DNA cleavage assay with a single U:A basepair", "type": "biochemical", "set-up": "6xHis; purchased XTAL Biostructures; host or cells: Sf9 insect cells", "experimental": "20% polyacrylamide nucleic acid urea gel electrophoresis was used to resolve the DNA bands at room temperature, 200 v for 50 min. Analysis and quantification of DNA cleavage were done as follows. A background subtraction step was included using the 23mer from the DNA only lane. […] A single oxo-guanine: cytosine base pair DNA with a Cy3 fluorescent tag on the 3′ end was used (10 nM).\nFollowing pre-incubation occurred for 20 min at 37° C., 2 μL of U:A DNA (500 nM stock) was added to initiate the reaction, total reaction volume of 50 μL/well. Each plate was incubated for 120 min at 37° C. Then, each 96 well plate was sealed and heated at a constant temperature of 95° C. for 55 min using the CFX96 real time system thermocycler. After the heating process, 5 μL of a bromophenol blue denaturing loading dye (20milligrams of bromophenol blue, 9.7 ml of formamide plus 300 μL of 10M NaOH) was added to each reaction well. […] TBE buffer was prepared by dissolving 54 grams of tris base, 28 grams of boric acid, and 4.5 grams of EDTA in 1.0 liter of distilled H2O. Gels were processed at 200V for 60 min in the dark. […] Gel data were analyzed using ImageJ software. […] Percent cleavage was calculated by using fluorescence intensity of the cleaved 23-mer DNA strand divided by the sum of the fluorescence bands (23mer+40mer DNA strands)*100. […]"}}, "data": [{"smiles": "O=C(O)C1=CC(=C(c2ccc(O)c(C(=O)O)c2)c2ccc(O)c(C(=O)O)c2)C=CC1=O", "note": "[ATA, aurintricarboxylic acid]", "values": [{"measurement": "destabilization of the human UDG protein (thermal shift)", "setting": "human UDG [1]", "value": "dose-dependent destabilization"}, {"measurement": "reduction in relative repair of uracil", "setting": "[2]", "value": 0.58}, {"measurement": "relative uracil removal in UDG-knockout cells", "setting": "[3]", "value": "~0.1"}, {"measurement": "reduction in relative repair of 8oxoG:C", "setting": "[4]", "value": 0.13}, {"measurement": "reduction in relative repair of hypoxanthine:T", "setting": "[5]", "value": 0.35}, {"measurement": "difference of IC50, OGG1 vs UDG", "setting": "human UDG [6]", "value": 5, "unit": "fold"}]}]}
